Tests used:
[1] = target: human somatostatin receptor subtype SSTR3 (Homo sapiens, UniProt P32745); assay: Competition binding with 125I-LTT-sst-28, CHO cell membranes, SSTR3; conditions: read-out: Ki (SSTR3), membranes of CHO cells stably transfected with human SSTR3, Ki from IC50 by Cheng-Prusoff
Experimental: (§1) The affinity of the compounds of the invention for the five human somatostatin receptor subtypes (SSTR1, SSTR2, SSTR3, SSTR4, and SSTR5) was determined in competition binding assays with (^125I-Tyr)-[Leu^8, DTrp^22]-somatostatin-28 (^125I-LTT-sst-28). The biological material for these experiments consisted of membranes from Chinese hamster ovary (CHO) cells stably transfected with one of the five human somatostatin receptor subtypes. Membranes (3-20 μg of total protein per sample) and trace amount of ^125I-LTT-sst-28 were incubated in 10 mM Hepes, 1 mM EDTA, 5 mM MgCl2, 5 mg/ml of BSA and 30 μg/ml bacitracin, pH 7.6 with six concentrations of the compounds. Each concentration was run in duplicate. Nonspecific binding was defined by 1 μM somatostatin-14 (sst-14) and corresponded to 5-25% of total binding. After 60 min at room temperature, incubations were terminated by rapid vacuum filtration through GF/B glass fiber filter mats (presoaked at 4° C. in 200 ml of 10 mM Hepes, 1 mM EDTA, 5 mM MgCl2, pH 7.6) and three 5 ml washes with ice-cold wash buffer (20 mM TRIS, 1 mM EDTA, 5 mM MgCl2, pH 7.4). The filters were then dried, impregnated with scintillate and their radioactivity was measured by scintillation counting. […] Affinity constants (Ki) were calculated from the IC50 values according to the Cheng-Prusoff's equation (Cheng and Prusoff, 1973). […]

The chains behind the UniProt entries cited, without tags or fusion partners.
UniProt P32745, whole entry: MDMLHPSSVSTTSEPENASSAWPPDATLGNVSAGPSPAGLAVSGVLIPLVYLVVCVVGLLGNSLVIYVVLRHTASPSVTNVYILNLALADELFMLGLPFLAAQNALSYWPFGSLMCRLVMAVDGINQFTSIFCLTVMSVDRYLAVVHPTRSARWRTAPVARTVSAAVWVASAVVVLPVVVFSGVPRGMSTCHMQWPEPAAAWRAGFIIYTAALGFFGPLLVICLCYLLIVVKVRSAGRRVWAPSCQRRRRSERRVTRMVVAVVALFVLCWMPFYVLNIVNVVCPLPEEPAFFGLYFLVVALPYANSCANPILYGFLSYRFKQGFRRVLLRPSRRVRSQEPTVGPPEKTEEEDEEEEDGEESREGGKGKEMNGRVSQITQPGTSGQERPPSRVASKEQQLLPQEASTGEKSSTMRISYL
UniProt P30874, whole entry: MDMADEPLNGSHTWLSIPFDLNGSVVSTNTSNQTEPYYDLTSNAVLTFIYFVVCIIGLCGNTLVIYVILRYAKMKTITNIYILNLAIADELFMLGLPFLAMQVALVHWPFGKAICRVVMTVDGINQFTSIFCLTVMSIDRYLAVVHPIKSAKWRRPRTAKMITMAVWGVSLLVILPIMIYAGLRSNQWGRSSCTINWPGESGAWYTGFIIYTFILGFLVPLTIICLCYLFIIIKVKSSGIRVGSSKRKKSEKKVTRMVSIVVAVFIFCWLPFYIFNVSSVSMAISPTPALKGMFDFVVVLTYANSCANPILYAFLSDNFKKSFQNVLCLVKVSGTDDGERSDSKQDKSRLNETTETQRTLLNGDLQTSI
UniProt P30872, whole entry: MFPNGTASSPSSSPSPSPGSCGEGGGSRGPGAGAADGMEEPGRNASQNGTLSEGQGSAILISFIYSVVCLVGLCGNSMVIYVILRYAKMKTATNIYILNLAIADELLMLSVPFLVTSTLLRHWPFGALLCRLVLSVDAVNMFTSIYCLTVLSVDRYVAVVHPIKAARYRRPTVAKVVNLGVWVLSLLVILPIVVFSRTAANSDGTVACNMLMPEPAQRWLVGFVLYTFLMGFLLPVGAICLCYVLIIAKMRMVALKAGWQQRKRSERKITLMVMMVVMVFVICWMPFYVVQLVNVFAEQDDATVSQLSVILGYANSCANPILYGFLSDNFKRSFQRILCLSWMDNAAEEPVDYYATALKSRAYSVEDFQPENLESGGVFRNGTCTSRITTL

[2] = target: human somatostatin receptor subtype SSTR2 (Homo sapiens, UniProt P30874); assay: Competition binding with 125I-LTT-sst-28, CHO cell membranes, SSTR2; conditions: read-out: Ki (SSTR2), membranes of CHO cells stably transfected with human SSTR2, Ki from IC50 by Cheng-Prusoff
Experimental: as §1

[3] = target: human somatostatin receptor subtype SSTR1 (Homo sapiens, UniProt P30872); assay: Competition binding with 125I-LTT-sst-28, CHO cell membranes, SSTR1; conditions: read-out: Ki (SSTR1), membranes of CHO cells stably transfected with human SSTR1, Ki from IC50 by Cheng-Prusoff
Experimental: as §1

[4] = target: human somatostatin receptor subtype SSTR4 (Homo sapiens, UniProt P31391); assay: Competition binding with 125I-LTT-sst-28, CHO cell membranes, SSTR4; conditions: read-out: Ki (SSTR4), membranes of CHO cells stably transfected with human SSTR4, Ki from IC50 by Cheng-Prusoff
Experimental: as §1

Ki [1]: > 10 µM | Ki [2]: > 30 µM | Ki [3]: > 3 µM | Ki [4]: 0.0059 µM
SMILES: NCC[C@H](NS(=O)(=O)c1cccc2ccccc12)C(=O)N[C@@H](Cc1ccccc1)C(N)=O
